From PMC8831520, “Small molecule SWELL1 complex induction improves glycemic control and nonalcoholic fatty liver disease in murine Type 2 diabetes” (Nature Communications, 2022) come the findings set out here.

In one assay the test system is T2D and non-T2D mice. Description: Metabolic phenotyping: fasting glucose, GTT, ITT. The following applies: HFD-fed T2D C57 mice, 5 mg/kg/day p.o.
The subject of assay [1] is T1, SWELL1 protein in 3T3-F442A adipocytes.
T1 construct: Western blots detecting SWELL1 and β-actin in WT 3T3-F442A adipocytes treated with either vehicle or SN-401 (10 µM) for 96 h; host or cells: 3T3-F442A preadipocytes and differentiated adipocytes (wild type)
Nature of the assay: SWELL1 protein western blot in adipocytes. Format: cell-based, murine. To be noted: 10 and 1 μM, 4 days, then 6 h serum starving. The method, then: For SN-401 treatment and insulin signaling studies in 3T3-F442A preadipocytes, the cells were incubated with either vehicle (DMSO) or 10 µM SN-401 for 96 h. The cells were serum-starved for 6 h with vehicle (DMSO) or SN-401 and washed with PBS three times and stimulated with 0, 3, and 10 nM insulin-containing media for 15 min prior to collecting lysates. In the case of 3T3-F442A adipocytes, the WT and KO cells were treated with either vehicle (DMSO), 1 or 10 µM SN-40X (after 7–11 days of differentiation) for 96 h and then stimulated with 0 and 10 nM insulin/serum-containing media with vehicle (DMSO) or SN-40X for 15 min for SWELL1 detection. For AKT and AS160 signaling, the WT and KO cells were treated with either vehicle (DMSO) or 500 nM SN-401 for 96 h and serum-starved in the presence of vehicle or SN-401 (500 nM) for 6 h. The cells were washed twice in hypotonic buffer (240 mOsm; 90 mM NaCl, 5 mM NaHCO3, 4.8 mM KCl, 1.2 mM KH2PO4, 2.5 mM CaCl2, 2.4 mM MgSO4, 10 mM HEPES, and 25 mM Glucose, pH 7.4) and then incubated at 37 °C in a hypotonic buffer for 10 min followed by a serum-free media wash and subsequent stimulation with insulin/serum-containing media for 30 min at 37 °C without SN-401 (or vehicle). […]
For orientation: A western blot detects proteins with antibodies after separation by electrophoresis.

For `CCCCC1(C2CCCC2)Cc2cc(OCCCC(=O)O)c(Cl)c(Cl)c2C1=O` (centres unmarked) [SN-401, 4-((2-butyl-6,7-dichloro-2-cyclopentyl-1-oxo-2,3-dihydro-1H-inden-5-yl)oxy)butanoic acid], the “in vivo therapeutic efficacy by oral gavage” value with T2D and non-T2D mice was “fully retains in vivo therapeutic efficacy”. Besides, in assay [1], the “SWELL1 protein level relative to vehicle-treated controls” value is reported as 1.5–2.1 fold.
